Only a part is listed here, and it is no random draw. Some results for these compounds are left out of this collection, so the calls shown say nothing about other tests. Results filed as inconclusive are left out. Active and inactive are the calls of the source. Calls come from the whole dose curve; as a rule, active = well fitted curve in the direction sought with a large enough effect; inconclusive = small, poorly fitted or top-dose-only effect; inactive = flat fitted curve, though single readings scatter.
Experiment: Counterscreen qHTS for Inhibitors of Tau Fibril Formation, Fluorescence Polarization; note: nearly all actives have a fitted effect of over 55% in size
Settings: tau K18 P301L (four-repeat tau fragment) Alexa594 fluorescence, heparin fibrillization; at 57.7 µM (top of the series)
For `O=C(NCC1(N2CCCCC2)CCCCC1)c1cc([N+](=O)[O-])ccc1Cl`, the activity change, negative = decrease was inactive: -9.26%. With `CN(C)C1(CNC(=O)c2ccccc2F)CCCCC1` the activity change, negative = decrease was inactive: 0.725%. For `CC(C)N1C(=O)CC2(CCN(CCOC(=O)C(O)(c3ccccc3)c3ccccc3)CC2)C1=O`, the activity change, negative = decrease was inactive: -2.01%. In the case of `CN(C)C1(CNC(=O)c2cccc(Cl)c2)CCCCC1`, the activity change, negative = decrease is reported as inactive: -4.15%. In the case of `CCN(CC)CC(C)C(C)OC(=O)C(O)(c1ccccc1)c1ccccc1` (configuration not stated), the activity change, negative = decrease is reported as inactive: 0.195%. In the case of `CCCCOc1ccccc1C(=O)NCC1(N(C)C)CCCCC1`, the activity change, negative = decrease is reported as inactive: -4.42%. In the case of `CN(C)C1CCCC1OC(=O)C(O)(c1ccccc1)c1ccccc1` (configuration not stated), the activity change, negative = decrease is reported as inactive: 2.51%. For `CN(C)C1(CNC(=O)c2ccccc2[N+](=O)[O-])CCCCC1`, the activity change, negative = decrease was inactive: -12.4%. In the case of `Cc1ccccc1C(=O)NCC1(N2CCCCC2)CCCCC1`, the activity change, negative = decrease is reported as inactive: 9.95%. For `CCN1CCCC(OC(=O)C2(O)c3ccccc3C=Cc3ccccc32)C1` (configuration not stated), the activity change, negative = decrease was inactive: 6.54%. In the case of `CCOc1cccc(C(=O)NCC2(N(C)C)CCCCC2)c1`, the activity change, negative = decrease is reported as inactive: 10.3%. With `C=CCN1CCN(CCOC(=O)C(O)(c2ccccc2)c2ccccc2)CC1` the activity change, negative = decrease was inactive: -1.75%. For `COc1ccc(C(=O)NCC2(N(C)C)CCCCC2)cc1Cl`, the activity change, negative = decrease was inactive: 5.68%. For `COc1cccc(C(=O)NCC2(N3CCCCC3)CCCCC2)c1`, the activity change, negative = decrease was inactive: 2.86%. In the case of `CC(C)COc1ccc(C(=O)NCC2(N(C)C)CCCCC2)cc1`, the activity change, negative = decrease is reported as inactive: -4.4%. In the case of `O=C(OC1CN2CCC1CC2)C(CO)(c1ccccc1)c1ccccc1` (configuration not stated), the activity change, negative = decrease is reported as inactive: 2.1%. In the case of `COc1cccc(C(=O)NCC2(N3CCOCC3)CCCCC2)c1`, the activity change, negative = decrease is reported as inactive: -11.2%. For `CN(C)c1cccc(C(=O)NCC2(N(C)C)CCCCC2)c1`, the activity change, negative = decrease was inactive: -2.08%. With `CC(C)Oc1ccc(C(=O)NCC2(N(C)C)CCCCC2)cc1` the activity change, negative = decrease was inactive: 2.56%. With `COc1ccc(Br)c(C(=O)NCC2(N3CCCCC3)CCCCC2)c1` the activity change, negative = decrease was inactive: -2.2%. For `COc1cc(C(=O)NCC2(N(C)C)CCCCC2)cc(OC)c1OC`, the activity change, negative = decrease was inactive: 2.9%. In the case of `Cc1cccc(C(=O)NCC2(N(C)C)CCCCC2)c1`, the activity change, negative = decrease is reported as inactive: 5.4%.
% is set by controls: 0 for no effect and ±100 for the full control effect.
